The list shows a part of the results, in another mix than the full data. Calls of active or inactive are those of the source.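 The calls were made as follows: active = mean replicate inhibition above about 79%, with every replicate also reaching it (limit read from the data); inconclusive = only one of the two criteria met; inactive = mean below limit and not every replicate reaching it.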
biological target: FAD-linked sulfhydryl oxidase ALR (Homo sapiens) (UniProt P55789); assay: ALR-catalysed DTT oxidation blockers – biochemical, H2O2 detection, HRP-luminol luminescence, single point, primary screen (AID 485317); conditions: purified ALR, active compounds read high, concentration not given here

The chains behind the UniProt entries cited, without tags or fusion partners.
UniProt P55789, whole entry: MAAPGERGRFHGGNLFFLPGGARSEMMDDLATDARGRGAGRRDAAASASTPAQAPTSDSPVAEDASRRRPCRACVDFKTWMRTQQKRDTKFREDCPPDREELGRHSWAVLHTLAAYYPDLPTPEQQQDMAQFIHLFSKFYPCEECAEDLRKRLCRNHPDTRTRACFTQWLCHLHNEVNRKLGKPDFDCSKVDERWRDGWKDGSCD

| SMILES | inhibition |
| --- | --- |
| Cc1cc(SC(NC(=O)c2ccccc2)C(Cl)(Cl)Cl)nc(C(C)C)n1 (stereo not given) | inactive: 2.82% |
| O=P(Nc1ccccn1)(c1cccc2ccccc12)c1cccc2ccccc12 | inactive: 4.75% |
| Cc1cc(SC(NC=O)C(Cl)(Cl)Cl)ncn1 (stereo not given) | inactive: -6.09% |
| COc1ccccc1OP(C)(=O)Nc1ccccc1 (stereo not given) | inactive: -11.1% |
| CP(=O)(Nc1ccccc1Br)Oc1ccccc1 (stereo not given) | inactive: 0.113% |
| O=[N+]([O-])c1ccc(Nc2ccc(Oc3ccc([N+](=O)[O-])cc3[N+](=O)[O-])cc2)c([N+](=O)[O-])c1 | inactive: -1.22% |
| CP(=S)(Nn1cnnc1)Oc1ccccc1 (stereo not given) | inactive: 0.38% |
| CCOC(=O)Nc1cccc([As](=O)(O)O)c1 | inactive: 0.821% |
| CCc1ccc(OP(C)(=O)N2CCN(c3ccc([N+](=O)[O-])cc3)CC2)cc1 (stereo not given) | inactive: -4.84% |
| O=C(COc1ccccc1)OC1CN2CCC1CC2 (stereo not given) | inactive: -10.8% |
| CP(=O)(NC(=O)Nc1ccccc1)Oc1ccccc1 (stereo not given) | inactive: 2.75% |
| Cc1cc(C)cc(OP(C)(=O)Nc2ccc(SC(F)(F)F)cc2)c1 (stereo not given) | inactive: -2.09% |
| O=C(Nc1ccncc1[N+](=O)[O-])c1ccc([N+](=O)[O-])cc1[N+](=O)[O-] | inactive: -34.3% |
| Cc1cccc(C)c1OP(C)(=O)Nc1ccc(SC(F)(F)F)cc1 (stereo not given) | inactive: -2.12% |
| CP(=O)(Nc1ccc(SC(F)(F)F)cc1)Oc1ccc(Cl)cc1 (stereo not given) | inactive: -4.21% |
| COP1(=S)c2c(C)nn(CCC#N)c2N=C(c2ccc(F)cc2)N1C (stereo not given) | inactive: -5.51% |
| CCC(C)N(CC(C)C)C(=S)SC(NC(C)=O)C(Cl)(Cl)Cl (stereo not given) | inactive: -4.52% |
| CP(=O)(Nc1ccccn1)Oc1ccc(Cl)cc1 (stereo not given) | inactive: -0.0811% |
| CCOP(C)(=S)SCC(=O)NC(C)C(=O)O (stereo not given) | inactive: -8.83% |
| O=C(OC1CN2CCC1CC2)c1cccc([N+](=O)[O-])c1 (stereo not given) | inactive: -8.67% |
| CCOC(=O)c1ccc(NP(C)(=O)Oc2ccc(OC)cc2)cc1 (stereo not given) | inactive: 2.04% |
| CCOC(=O)c1ccc(NC(=O)C(C)(CCl)SC)cc1 (stereo not given) | inactive: -7.37% |
| O=[N+]([O-])c1cc([N+](=O)[O-])c(O)c([N+](=O)[O-])c1.c1ccc(Oc2ccncc2)cc1 | inactive: -3.13% |
| COc1ccc2nc(NP(=O)(c3ccccc3)c3ccccc3)sc2c1 | inactive: 1.93% |

| SMILES | inhibition |
| --- | --- |
| COc1cc(I)ccc1[As](=O)(O)O | inactive: -4.42% |
| Cc1c2c(nc3ccccc13)SC(C(Cl)Cl)C2 (stereo not given) | inactive: -0.4% |
| O=C(OC1CN2CCC1CC2)C12CC3CC(CC(C3)C1)C2 (stereo not given) | inactive: 11.9% |
| Cc1cc(=O)[nH]c(N[N+](=O)[O-])n1 | inactive: -0.013% |
| CCN(CC)CCCOC(=O)C(O)(c1ccccc1)c1ccccc1 | inactive: -2.29% |
| COc1ccc(N/C(=N/P(=O)(N2CCOCC2)N2CCOCC2)N2CCOCC2)cc1 | inactive: -35.3% |
| CC(C)(C)c1ccc(OP(C)(=O)Nc2ccc(SC(F)(F)F)cc2)cc1 (stereo not given) | inactive: -3.14% |
| Cc1ccc(OP(=O)(Nc2ccc([N+](=O)[O-])cn2)Oc2ccc(C)cc2)cc1 | inactive: -11.5% |
| Cc1ccc2nc3c(c(C)c2c1)CC(C(Cl)Cl)S3 (stereo not given) | inactive: -9.05% |
| O=[N+]([O-])c1ccc2c(c1)C=Nc1ccccc1O2 | inactive: 21.5% |
| O=[N+]([O-])c1cc([N+](=O)[O-])c(Nc2cccnc2)c([N+](=O)[O-])c1 | inactive: -29.3% |
| O=[As](O)(c1ccc(O)cc1)c1ccccc1O | inactive: 3.49% |
| C[As](=O)(O)c1cccc(C(=O)O)c1 | inactive: -1.19% |
| COc1cc(C(=O)NCC2(N3CCOCC3)CCCCC2)ccc1OCC(C)C | inactive: -19.8% |
| COc1ccccc1OP(C)(=O)Nc1cc(Cl)ccc1C (stereo not given) | inactive: -0.442% |
| CC(C)NC(=O)NP(=O)(Oc1ccccc1)Oc1ccccc1 | inactive: 7.47% |
| O=[N+]([O-])c1cc([N+](=O)[O-])c(-c2ccn[nH]2)s1 | inactive: -25.9% |
| COc1ccc(OP(C)(=O)Nc2cccc(F)c2)cc1 (stereo not given) | inactive: -1.8% |
| CCOC(=O)c1ccc(NP(C)(=O)Oc2ccccc2)cc1 (stereo not given) | inactive: -1.45% |
| ClCCSc1nnc(-c2cccnc2)o1 | inactive: -10.6% |
| COc1ccccc1OP(C)(=O)Nc1ccc(C)cc1 (stereo not given) | inactive: -1.85% |
| Cc1ccc(NP(C)(=O)Oc2ccccc2)c(C)c1 (stereo not given) | inactive: 1.91% |
| Nc1ccccc1[As](=O)(O)c1ccccc1 | inactive: -5.27% |
| O=C(O)COc1ccc([As](=O)(O)O)cc1[N+](=O)[O-] | inactive: -7.1% |

| SMILES | inhibition |
| --- | --- |
| CCOP1(=S)c2c(C)nn(CCC#N)c2N=C(c2ccccc2F)N1C (stereo not given) | inactive: -8% |
| O=C(O)c1cccc(Nc2c([N+](=O)[O-])cc([N+](=O)[O-])cc2[N+](=O)[O-])c1 | inactive: -28% |
| O=P(Nc1nccs1)(c1ccccc1)c1nc2ccccc2s1 (stereo not given) | inactive: 2.53% |
| O=P(Nc1nccs1)(Oc1ccccc1)Oc1ccccc1 | inactive: 1.51% |
| N#CCCN(C(=O)COC(=O)C(O)(c1ccccc1)c1ccccc1)c1ccc(F)cc1 | inactive: -2.95% |
| CCOP1(=S)c2c(C)nn(CCC#N)c2N=C(c2ccc(F)cc2)N1C (stereo not given) | inactive: -1.22% |
| CN(C(=O)Cc1ccccc1)[C@@H]1CC[C@]2(CCCO2)C[C@H]1N1CCCC1 | inactive: 1.31% |
| CN(C)C(=O)c1cc([N+](=O)[O-])cc2c1-c1c(cc([N+](=O)[O-])cc1[N+](=O)[O-])C2=O | inactive: -17.2% |
| O=[N+]([O-])c1ccc2c(c1)nnn2O | inactive: -7.02% |
| CN(C(=O)Cc1ccc(Cl)c(Cl)c1)[C@H]1CC[C@@]2(CCCO2)C[C@@H]1N1CCCC1 | inactive: -10.6% |
| NC(=O)Nc1ccc([As](=O)(O)O)cc1 | inactive: -1.94% |
| O=[As](O)(c1cccc(O)c1)c1cccc(O)c1 | inactive: -6.08% |
| Cc1cccc(OCC(=O)OC2CN3CCC2CC3)c1 (stereo not given) | inactive: -10.9% |
| Cc1cc(C)cc(OP(C)(=O)Nc2ccc(C)cc2C)c1 (stereo not given) | inactive: -2.64% |
| CCOC(=O)c1ccc(NP(C)(=O)Oc2cc(C)cc(C)c2)cc1 (stereo not given) | inactive: -13.1% |
| O=C(OC1CN2CCC1CC2)c1ccc(Cl)cc1 (stereo not given) | inactive: 7.68% |
| COc1cc(C(=O)NCC2(N3CCOCC3)CCCCC2)cc(Cl)c1OC(C)C | inactive: -0.575% |
| O=[As](O)(O)c1cccnc1 | inactive: 0.27% |
| COc1ccccc1OP(C)(=O)Nc1cccc(Br)c1 (stereo not given) | inactive: -1.59% |
| CS(=O)(=O)c1ccc(Cl)c(NC(=O)COC(=O)C(O)(c2ccccc2)c2ccccc2)c1 | inactive: 2.96% |
| CCOP(=O)(Nc1cccc2ccccc12)OCC | inactive: -24.3% |
| CP(=O)(Nc1cccc(Br)c1)Oc1ccccc1 (stereo not given) | inactive: -6.3% |
| Cc1cc(C)cc(OP(C)(=O)Nc2ccccn2)c1 (stereo not given) | inactive: -5% |
| Cc1ccc(NCCc2c([N+](=O)[O-])cc([N+](=O)[O-])cc2[N+](=O)[O-])cc1 | inactive: -4.7% |

| SMILES | inhibition |
| --- | --- |
| Nc1cccc2c([As](=O)(O)O)cccc12 | inactive: 17.2% |
| Cc1ccc(C)c(NP(C)(=O)Oc2ccccc2)c1 (stereo not given) | inactive: 1.12% |
| Clc1n[nH]nc1-c1nn[nH][15n]1 | inactive: -13.1% |
| CC(C)(C)C(=O)NC(Sc1ncccn1)C(Cl)(Cl)Cl (stereo not given) | inactive: 6.74% |
| CCC1=CC2Cc3nc4ccc(Cl)cc4c(N)c3C(C1)C2 (stereo not given) | inactive: -12.5% |
| CCOP(=O)(NC(=NC(C)c1ccccc1)NC(C)c1ccccc1)OCC (stereo not given) | inactive: -10.6% |
| O=[N+]([O-])c1cc([N+](=O)[O-])c(-n2nnc3ccccc32)c([N+](=O)[O-])c1 | inactive: -3.35% |
| CN(CCCl)Cc1cc(Cl)c(NC2=NCCN2)c(Cl)c1 | inactive: 1.95% |
| CCOP(=O)(Nc1ccc(C)cn1)OCC | inactive: -5.54% |
| O=[As](O)(c1ccccc1Br)c1ccccc1Br | inactive: 7.94% |
| CC1(CBr)Cn2c(nc3ccccc3c2=O)S1 (stereo not given) | inactive: -12.1% |
| Cc1nc2ccc3ccccc3c2s1.O=[N+]([O-])c1cc([N+](=O)[O-])c(O)c([N+](=O)[O-])c1 | inactive: -7.41% |
| O=[N+]([O-])c1cc([N+](=O)[O-])c(-c2cnn(-c3ccccc3)c2)c([N+](=O)[O-])c1 | inactive: -63.8% |
| COc1ccccc1CNC(=O)COC(=O)C(O)(c1ccccc1)c1ccccc1 | inactive: -4.38% |
| O=[N+]([O-])c1cc([N+](=O)[O-])c(Nc2nnnn2CCO)c([N+](=O)[O-])c1 | inactive: -12.6% |
| CCOC(=O)C(CC)C1=NC(C)(C)Cc2ccccc21.O=[N+]([O-])c1cc([N+](=O)[O-])c(O)c([N+](=O)[O-])c1 (stereo not given) | inactive: -2.91% |
| Cc1nn(-c2ccccc2)c2c1P(=O)(N1CCOCC1)N(C)C(c1ccccc1)=N2 (stereo not given) | inactive: -3.03% |
| CC1CCC(C(C)C)C(OP(=O)(Nc2ccccn2)c2ccccc2)C1 (stereo not given) | inactive: -6.5% |
| Cc1ccc(C(=O)OC2CN3CCC2CC3)cc1 (stereo not given) | inactive: -12.5% |
| COc1cc(C2NCCC3(OCCO3)C2(C)C)cc(OC)c1OC.O=[N+]([O-])c1cc([N+](=O)[O-])c(O)c([N+](=O)[O-])c1 (stereo not given) | inactive: -3.11% |
| CP(=O)(Nc1ccc(SC(F)(F)F)cc1)Oc1ccccc1 (stereo not given) | inactive: -3.49% |
| Nc1cccc([As](=O)(O)c2ccccc2)c1 | inactive: -5.47% |
| CCCOc1ccc(NP(C)(=O)Oc2ccc(Cl)cc2)cc1 (stereo not given) | inactive: -1.93% |

— PubChem BioAssay AID485317 (Broad Institute, 2010)
